# Laboratory results as given in PMC3822002 (Chembiochem : a European journal of chemical biology, 2013).
# Sequences of proteins named here, by UniProt entry; tags and fusion partners are left off.
# UniProt Q13564, whole entry, chain 1 of 2: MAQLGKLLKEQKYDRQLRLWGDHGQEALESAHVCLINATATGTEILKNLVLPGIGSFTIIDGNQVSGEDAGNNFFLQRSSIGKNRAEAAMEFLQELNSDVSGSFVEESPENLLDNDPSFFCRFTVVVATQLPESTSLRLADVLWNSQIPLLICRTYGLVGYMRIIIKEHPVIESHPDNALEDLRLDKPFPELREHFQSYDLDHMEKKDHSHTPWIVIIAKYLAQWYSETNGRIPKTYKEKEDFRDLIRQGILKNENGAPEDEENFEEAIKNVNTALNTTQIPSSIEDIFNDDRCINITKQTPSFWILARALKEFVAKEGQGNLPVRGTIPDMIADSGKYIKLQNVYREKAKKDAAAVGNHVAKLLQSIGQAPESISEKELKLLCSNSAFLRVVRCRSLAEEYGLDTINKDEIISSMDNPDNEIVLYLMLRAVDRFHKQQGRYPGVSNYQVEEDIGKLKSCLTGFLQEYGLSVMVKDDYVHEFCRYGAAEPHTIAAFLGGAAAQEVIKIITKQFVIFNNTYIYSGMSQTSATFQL
# Biological target: Nedd8 activating enzyme (NAE), heterodimer of APPBP1 and Uba3 (UniProt Q13564)
row,"K1/2 of the ATP-PPi exchange reaction catalysed by NAE, saturating ATP [µM]",Substance
1,88,"pNedd8 (70VLALRGG76), peptide with the native C-terminal sequence of Nedd8"
2,51,"pND22 (70VRLMFGG76), Nedd8-mimicking peptide"
3,42,"pND20 (70VILTFGG76), Nedd8-mimicking peptide"
